# High-throughput results deposited in PubChem by ICCB-Longwood Screening Facility, Harvard Medical School.
# In the library only some 0.46% were active in any assay of this set; here they are far more common.
# GIV Gai3 FP = blocks GIV peptide binding to rat Galpha-i3; Galpha-i3/FITC-GIV peptide fluorescence polarization, 90 min; stronger effect = lower value; scaled: aluminum fluoride 0%, vehicle 100%; P08753; hit rate 0.42% among 210,000; AID 1224905; percent of control (FP), % (test concentration not listed);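 active = replicate mean at 85% of control or lower, very high polarization wells dropped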;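 also: wells of about 15 µL received 100 nL stock; the first replicate is given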
# HCMV NEC inh = inhibitors of HCMV UL50-UL53 nuclear egress complex interaction | inhibition, % (concentration not given with the values) | HTRF UL50-UL53 interaction, normalized percent inhibition | 190,000 compounds, 0.15% hits; in the data active = inhibition above about 27%, passing the limit was not always enough
# GIV-Gai FP conf = GIV-Galpha-i3 inhibition, FP confirmation. AID 1259350. FITC-GIV peptide binding to Galphai3, fluorescence polarization; active compounds read low. shares compounds with GIV Gai3 FP. 580 compounds, 38% hits. fluorescence polarization, mP at 100 µM;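 active = inhibition score of 15 or more, meaning 100 minus mean polarization as percent of control over three replicates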;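 also: lower mP means peptide displaced from Galphai3 so more inhibition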
# GIV Gai AS conf = confirmation of inhibitors of GIV binding to human Galpha-i3 | AlphaScreen counts at 100 µM | AlphaScreen Galphai3-GIV binding, purified proteins, 90 min; active compounds read low | 580 compounds, 39% hits | shares compounds with GIV Gai3 FP;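 active = inhibition score at or above a set limit, where the score is 100 minus the three-replicate mean percent of control signal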
# An asterisk follows results filed as active; / = no result; ! = repeats disagree.
item	mol	GIV Gai3 FP	HCMV NEC inh	GIV-Gai FP conf	GIV Gai AS conf
1	C=CCOc1ccc(C2/C(=C(\O)c3ccc(OC)cc3)C(=O)C(=O)N2CCN2CCNCC2)cc1 (configuration not stated)	104	-25	/	/
2	C=CCSc1c(CCC)cnc2c1c(=O)n(C)c(=O)n2C	107	/	/	/
3	CC1(C)C(=O)N(CC(=O)Nc2cccc(F)c2)c2ccccc21	95	13	/	/
4	CCOc1ccc(N2C(=O)CC(N3CCCCC3CC)C2=O)cc1 (configuration not stated)	95	-13	/	/
5	COc1ccccc1OCCOc1ccc(/C=c2\sc3nc4ccccc4n3c2=O)cc1OC	109	-1	/	/
6	CCCCn1c(CCC(=O)O)nc2cc(S(=O)(=O)N3CCOCC3)ccc21	/	-22	/	/
7	O=C(CSc1nc2nc[nH]c2c(=O)[nH]1)Nc1ccc(F)cc1	101	6	/	/
8	O=S(=O)(Nc1ccc(-c2ccc(N3CCCC3)nn2)cc1)c1ccc(F)cc1F	101	-43	/	/
9	CCOc1cc(CNc2ccc(O)cc2)ccc1OCc1ccc(Cl)cc1	76*	14	61*	10130*
10	Oc1ccc(NCc2ccccc2OCc2ccc(Cl)cc2)cc1	104	26	/	/

# An excerpt of these results, with one line to a screen.
10: Oc1ccc(NCc2ccccc2OCc2ccc(Cl)cc2)cc1
4: CCOc1ccc(N2C(=O)CC(N3CCCCC3CC)C2=O)cc1 (configuration not stated)
9: CCOc1cc(CNc2ccc(O)cc2)ccc1OCc1ccc(Cl)cc1
3: CC1(C)C(=O)N(CC(=O)Nc2cccc(F)c2)c2ccccc21
7: O=C(CSc1nc2nc[nH]c2c(=O)[nH]1)Nc1ccc(F)cc1

screen / no. | 10 | 4 | 9 | 3 | 7
GIV Gai3 FP | 104 | 95 | 76* | 95 | 101
HCMV NEC inh | 26 | -13 | 14 | 13 | 6
GIV-Gai FP conf | / | / | 61* | / | /
GIV Gai AS conf | / | / | 10130* | / | /

# The results go on.
item	mol	GIV Gai3 FP	HCMV NEC inh	GIV-Gai FP conf	GIV Gai AS conf
11	Cc1ccc(C)c(S(=O)(=O)Nc2cc(C(=O)O)cnc2N(C)C)c1	86	-35	60	26202*
12	CCN(CC)c1ncc(C(=O)O)cc1NS(=O)(=O)c1cc(C)cc(C)c1	80*	-32	53	26287*
13	CCCCN(CC)c1ncc(C(=O)O)cc1NS(=O)(=O)c1cc(C)c(C)cc1C	101	-15	/	/
14	CCN(Cc1ccccc1)c1ncc(C(=O)O)cc1NS(=O)(=O)c1cc(C)cc(C)c1	138	-29	/	/
15	Cc1ccc(S(=O)(=O)c2ccc(C(=O)NCc3ccc4c(c3)OCO4)cn2)cc1C	99	-26	/	/
16	CCc1ccc2nc(N(Cc3cccnc3)C(=O)Cc3ccccc3)sc2c1	37*	/	77	33433
17	COc1ccc2nc(N(Cc3cccnc3)C(=O)Cc3ccccc3)sc2c1	112	/	/	/
18	O=S(=O)(NCCc1nc(-c2ccccc2)n[nH]1)c1ccccc1F	103	/	/	/
19	CCOc1ccc2nc(NC(=O)c3ccc(NS(=O)(=O)c4cccs4)cc3)sc2c1	104	-4	/	/
20	Cn1c(=O)n(CC(=O)O)c(=O)c2c1nc1n2CCN1c1ccc(F)cc1	85*	0	64	39054
21	Cn1c(=O)n(CC(=O)O)c(=O)c2c1nc1n2CCCN1c1ccc(F)cc1	93	-8	/	/
22	O=C(Cc1c(F)cccc1Cl)Nc1cc(C(=O)NCc2ccco2)ccc1N1CC2CC(C1)c1cccc(=O)n1C2 (configuration not stated)	105	/	/	/
23	CCCNC(=O)C1CCN(c2nc3ccccc3n2Cc2ccccc2F)CC1	101	-6	/	/
24	CC(=O)N/N=C/c1cc(C(C)C)cc(/C=N/NC(C)=O)c1O	81*	-85	68	27039
25	CC(=O)N/N=C/c1ccccc1	101	-14	/	/
26	COc1cccc(CNC(=O)c2c3c(nc4ccccc24)C(=O)N(C2CCCCC2)C3)c1	89	/	81	34982
27	COc1ccc(CNC(=O)c2c3c(nc4ccccc24)C(=O)N(C2CCCCC2)C3)cc1	100	/	/	/
28	O=C1CCCC/C1=C/Nc1ccc(Br)cc1F	106	-37	/	/
29	O=S(=O)(c1cc(-c2nnc(C3CC3)o2)co1)N1CCOCC1	105	/	/	/
30	Cc1cc2c(NC(=O)COCC(=O)O)cccc2nn1	73*	-28	55*	16084*
31	Cc1cc2c(NC(=O)CC(C)(C)CC(=O)O)cccc2nn1	98	-37	/	/
32	CCCN1CCC2(CC1)C1CN(CCC)CC=C1C(C#N)=C(N)C2(C#N)C#N (configuration not stated)	88	-47	61	50169
33	CCOc1ccc(C2C3CN(CC)CC=C3C(C#N)=C(N)C2(C#N)C#N)cc1 (configuration not stated)	125	/	/	/
34	CCN(Cc1ccccc1)C(=O)c1cc2c(=O)[nH]c3ccc(C)cc3c2s1	103	-13	/	/
35	CN(Cc1ccccc1)C(=O)c1cc2c(=O)[nH]c3ccccc3c2s1	87	0	68	48153
36	COCCn1c(=NC(=O)c2ccc3c(c2)OCCO3)sc2cc(NC(C)=O)ccc21	80*	/	80	35824
37	CCOCCn1c(=NC(=O)c2ccc3c(c2)OCCO3)sc2cc(OCC)ccc21	104	/	/	/
38	CCOC(=O)[C@@H]1Nc2ccc(C(=O)O)cc2[C@@H]2C=CC[C@H]12	63*	/	50*	2184*
39	CCOC(=O)[C@@H]1Nc2ccc(Br)cc2[C@@H]2C=CC[C@H]12	125	-44	/	/
40	COc1ccc(OC)c(C2C(C(=O)Nc3nc4ccccc4s3)=C(C)NC3=C2C(=O)CC(C)(C)C3)c1 (configuration not stated)	105	-2	/	/
41	COc1ccc(OC)c(C2C(C(=O)Nc3nc4ccc(Br)cc4s3)=C(C)NC3=C2C(=O)CC(C)(C)C3)c1 (configuration not stated)	88	-8	63	54834
42	COC(=O)c1ccc2nsnc2c1	86	/	65	37884
43	CCOC(=O)c1ccc2nsnc2c1	101	-69	/	/
44	CC(=O)c1cccc(NC(=O)c2ccc(N3CC4CC(C3)c3cccc(=O)n3C4)c(NC(=O)c3ccccc3Cl)c2)c1 (configuration not stated)	120	/	/	/
45	Cc1ccsc1C1C=C(c2cccc(Br)c2)Nc2ncnn21 (configuration not stated)	81*	/	47*	49839
46	CCc1ccc(C2=CC(c3sccc3C)n3ncnc3N2)cc1 (configuration not stated)	104	/	/	/
47	O=C1Nc2ccccc2S(=O)(=O)N1Cc1ccccc1	100	-27	/	/
48	Cc1cccc(-c2nn3c(=O)cc(N4CCN(C(=O)Nc5ccc6c(c5)OCO6)CC4)nc3s2)c1	102	24	/	/
49	Cc1cccc(NC(=O)N2CCN(c3cc(=O)n4nc(-c5cccc(C)c5)sc4n3)CC2)c1	87	19	81	25822
50	Cc1ccccc1-c1nn2c(=O)cc(N3CCN(C(=O)Nc4cccc(F)c4)CC3)nc2s1	88	-13	81	28810
51	Cc1ccccc1-c1nn2c(=O)cc(N3CCN(C(=O)Nc4ccccc4)CC3)nc2s1	97	-11	/	/
52	COc1ccc(CN(C)C(=O)C2CC3C=CC2C3)c(OC)c1 (configuration not stated)	/	-20	/	/
53	COc1ccc(C2(O)CN(c3ccc(Cl)cc3)C3=[N+]2CCCS3)c(F)c1 (configuration not stated)	103	/	/	/
54	CCOC(=O)C1=C(CSc2nc(-c3cccs3)ccc2C#N)OC(N)=C(C#N)C1c1cccc(F)c1 (configuration not stated)	118	/	/	/
55	Cc1ccc(C(=O)Nc2ccc(S(=O)(=O)O)c3cc(S(=O)(=O)O)cc(S(=O)(=O)O)c23)cc1NC(=O)c1cccc(NC(=O)Nc2cccc(C(=O)Nc3cc(C(=O)Nc4ccc(S(=O)(=O)O)c5cc(S(=O)(=O)O)cc(S(=O)(=O)O)c45)ccc3C)c2)c1	76*!	-50	61*	12181*
56	Cc1ccc(C)c(NC(=O)c2cccc(S(=O)(=O)N3CCCC3)c2)c1	/	10	/	/
57	CC1=CC(=C2C(=O)N(c3ccccc3)N=C2C)C=C(C)N1Cc1ccco1	/	3	/	/
58	CC1=CC(=C2C(=O)NC(=S)NC2=O)C=C(C)N1Cc1ccco1	73*	-29	48*	2400*

# Entries by screen from the entries so far:
# Entries 51 to 58 in HCMV NEC inh read -11, -20, /, /, -50, 10, 3, -29
